The target in the test is mammalian target of rapamycin (mTOR) (Homo sapiens (Human), UniProt P42345). The note with it: read-out: mTOR IC50.
The term IC50 denotes the concentration at which inhibition is half-maximal. As for `COc1ccc(Nc2ncc(C(C)N3CCN(S(C)(=O)=O)CC3)cc2-c2nc(C)nc(N)n2)cn1` (stereo not shown) [Example 144, 4-(2-(6-Methoxypyridin-3-Ylamino)-5-(1-(4-(Methylsulfonyl)Piperazin-1-yl)Ethyl)Pyridin-3-yl)-6-Methyl-1,3,5-Triazin-2-Amine], the IC50 is 2.2 µM.

For `COc1ccc(Nc2ncc(CN3CC(S(C)(=O)=O)C3)cc2-c2nc(C)nc(N)n2)cn1` [Example 223, 4-(2-(6-Methoxypyridin-3-Ylamino)-5-((3-(Methylsulfonyl)Azetidin-1-yl)Methyl)Pyridin-3-yl)-6-Methyl-1,3,5-Triazin-2-Amine], the IC50 was above 10 µM.

As for `Cc1nc(N)nc(-c2cccnc2Nc2cccc3[nH]ncc23)n1` [Example 24, N-(3-(4-Amino-6-Methyl-1,3,5-Triazin-2-yl)Pyridin-2-yl)-1H-Indazol-4-Amine], the half-inhibitory concentration (IC50) was above 50 µM.

On to `Cc1nc(N)nc(-c2cc(CN3CCN(S(C)(=O)=O)CC3)cnc2Nc2ccc3scnc3c2)n1` [Example 240, N-(3-(4-Amino-6-Methyl-1,3,5-Triazin-2-yl)-5-((4-(Methylsulfonyl)Piperazin-1-yl)Methyl)Pyridin-2-yl)Benzo[D]Thiazol-5-Amine], for which the IC50 stood at 0.849 µM.

As for `COc1cc(Nc2ncccc2-c2nc(C)nc(N)n2)ccc1F` [Example 167, 4-(2-(4-Fluoro-3-Methoxyphenylamino)Pyridin-3-yl)-6-Methyl-1,3,5-Triazin-2-Amine], the IC50 was above 10 µM.

With `COc1ccc(Nc2nc(N(C)C)ncc2-c2nc(C)nc(N)n2)cn1` [Example 121, 5-(4-amino-6-methyl-1,3,5-triazin-2-yl)-N4-(6-methoxypyridin-3-yl)-N2,N2-dimethylpyrimidine-2,4-diamine], the IC50 is above 10 µM.

As to `COc1ccc(Nc2ncc(Cl)cc2-c2nc(C)nc(N)n2)cn1` [Example 184, 4-(5-Chloro-2-(6-Methoxypyridin-3-Ylamino)Pyridin-3-yl)-6-Methyl-1,3,5-Triazin-2-Amine], the IC50 is above 10 µM.

In the case of `COc1ncc(Nc2ncc(C(C)(C)O)nc2-c2cc(N)nc(C)n2)cc1F` [Example 284, 2-(6-(6-Amino-2-Methylpyrimidin-4-yl)-5-(5-Fluoro-6-Methoxypyridin-3-Ylamino)Pyrazin-2-yl)Propan-2-ol], the IC50 was above 10 µM.

`COc1ccc(Nc2ncc(CN3CCNCC3)cc2-c2nc(C)nc(N)n2)cn1` [Example 41, 4-(2-(6-methoxypyridin-3-ylamino)-5-(piperazin-1-ylmethyl)pyridin-3-yl)-6-methyl-1,3,5-triazin-2-amine]: the IC50 is above 10 µM.

Turning to `COc1ncc(Nc2ncc(C(=O)N3CCC(O)CC3)cc2-c2nc(C)nc(N)n2)cc1F` [Example 176, (5-(4-amino-6-methyl-1,3,5-triazin-2-yl)-6-(5-fluoro-6-methoxypyridin-3-ylamino)pyridin-3-yl)(4-hydroxypiperidin-1-yl)methanone], the IC50 was above 10 µM.

As for `COc1ncc(Nc2ncc(C(C)(C)O)cc2-c2nc(C)nc(N)n2)cc1C(F)(F)F` [Example 348, 2-(5-(4-Amino-6-Methyl-1,3,5-Triazin-2-yl)-6-(6-Methoxy-5-(Trifluoromethyl)Pyridin-3-Ylamino)Pyridin-3-yl)Propan-2-ol], the IC50 was above 10 µM.

Consider `COc1ccc(Nc2ncc(C(C)N3CC(S(C)(=O)=O)C3)cc2-c2nc(C)nc(N)n2)cn1` (stereo not shown) [Example 308, 4-(2-(6-methoxypyridin-3-ylamino)-5-(1-(3-(methylsulfonyl)azetidin-1-yl)ethyl)pyridin-3-yl)-6-methyl-1,3,5-triazin-2-amine 2,2,2-trifluoroacetate], for which the IC50 turned out to be 1.89 µM.

Consider `Cc1nc(N)nc(-c2cc([C@@H](C)N3CCN(S(C)(=O)=O)CC3)cnc2Nc2ccc(Cl)nc2)n1` [Example 309, (R)-4-(2-(6-chloropyridin-3-ylamino)-5-(1-(4-(methylsulfonyl)piperazin-1-yl)ethyl)pyridin-3-yl)-6-methyl-1,3,5-triazin-2-amine], for which the concentration for half-maximal inhibition (IC50) came to 2.67 µM.

For `Nc1cc(-c2cccnc2Nc2cccc3[nH]ncc23)nc(C(F)(F)F)n1` [Example 21, N-(3-(6-Amino-2-(Trifluoromethyl)Pyrimidin-4-yl)Pyridin-2-yl)-1H-Indazol-4-Amine], the half-maximal inhibitory concentration (IC50) was above 50 µM.

As for `CC(=O)Nc1ccc(Nc2ncc(CN3CCN(S(C)(=O)=O)CC3)cc2-c2nc(C)nc(N)n2)cc1` [Example 268, N-(4-(3-(4-Amino-6-Methyl-1,3,5-Triazin-2-yl)-5-((4-(Methylsulfonyl)Piperazin-1-yl)Methyl)Pyridin-2-Ylamino)Phenyl)Acetamide], the half-inhibitory concentration (IC50) was found to be 0.161 µM.

Turning to `COc1ccc(Nc2ncc(-c3cncc(F)c3)cc2-c2nc(C)nc(N)n2)cn1` [Example 253, 5-(4-Amino-6-Methyl-1,3,5-Triazin-2-yl)-5′-Fluoro-N-(6-Methoxypyridin-3-yl)-3,3′-Bipyridin-6-Amine], the IC50 is above 10 µM.

As to `Cc1nc(N)cc(-c2nccnc2Nc2cccc3[nH]ncc23)n1` [Example 112, N-(3-(6-amino-2-methylpyrimidin-4-yl)pyrazin-2-yl)-1H-indazol-4-amine], the IC50 is above 10 µM.

On to `COc1ccc(Nc2ncc(CN3CCC(O)CC3)cc2-c2nc(C)nc(N)n2)cn1` [Example 215, 1-((5-(4-Amino-6-Methyl-1,3,5-Triazin-2-yl)-6-(6-Methoxypyridin-3-Ylamino)Pyridin-3-yl)Methyl)Piperidin-4-ol], for which the IC50 was above 10 µM.

As to `COc1ccc(Nc2nccnc2-c2cc(N)nc(C)n2)cn1` [Example 116, 6-(3-(6-methoxypyridin-3-ylamino)pyrazin-2-yl)-2-methylpyrimidin-4-amine], the IC50 is above 10 µM.

In the case of `COc1ccc(Nc2ncc(CC3CCN(S(C)(=O)=O)CC3)cc2-c2nc(C)nc(N)n2)cn1` [Example 155, 4-(2-(6-Methoxypyridin-3-Ylamino)-5-((1-(Methylsulfonyl)Piperidin-4-yl)Methyl)Pyridin-3-yl)-6-Methyl-1,3,5-Triazin-2-Amine], the 50% inhibitory concentration (IC50) was above 10 µM.

With `COc1ncc(Nc2ncc(C(C)CO)cc2-c2nc(C)nc(N)n2)cc1F` (stereo not shown) [Example 312, 2-(5-(4-amino-6-methyl-1,3,5-triazin-2-yl)-6-(5-fluoro-6-methoxypyridin-3-ylamino)pyridin-3-yl)propan-1-ol], the half-inhibitory concentration (IC50) is above 10 µM.

For `COc1ccc(Nc2ncc(CN3CCOC[C@@H]3C)cc2-c2nc(C)nc(N)n2)cn1` [Example 219, (S)-4-(2-(6-Methoxypyridin-3-Ylamino)-5-((3-Methylmorpholino)Methyl)Pyridin-3-yl)-6-Methyl-1,3,5-Triazin-2-Amine], the concentration for half-maximal inhibition (IC50) is above 10 µM.

Regarding `COCCOc1cnc(Nc2cnc(C)c(NS(C)(=O)=O)c2)c(-c2nc(C)nc(N)n2)c1` [Example 376, N-(5-(3-(4-Amino-6-Methyl-1,3,5-Triazin-2-yl)-5-(2-Methoxyethoxy)Pyridin-2-Ylamino)-2-Methylpyridin-3-yl)Methanesulfonamide], the IC50 turned out to be 1.94 µM.

`COCCOc1cnc(Nc2cnc(Cl)c(NS(C)(=O)=O)c2)c(-c2nc(C)nc(N)n2)c1` [Example 335, N-(5-(3-(4-Amino-6-Methyl-1,3,5-Triazin-2-yl)-5-(2-Methoxyethoxy)Pyridin-2-Ylamino)-2-Chloropyridin-3-yl)Methanesulfonamide]: the 50% inhibitory concentration (IC50) was 0.051 µM.

In the case of `COc1ccc(Nc2ncc(N3CCC[C@@H]3CO)cc2-c2nc(C)nc3[nH]cnc23)cn1` [Example 101, ((2R)-1-(6-(6-Methoxypyridin-3-Ylamino)-5-(2-Methyl-9H-Purin-6-yl)Pyridin-3-yl)Pyrrolidin-2-yl)Methanol], the IC50 was found to be 2.7 µM.

As to `Cc1nc(N)nc(-c2cc([C@@H](C)N3CCN(S(C)(=O)=O)CC3)cnc2Nc2cc(F)c3cccnc3c2)n1` [Example 287, (R)—N-(3-(4-Amino-6-Methyl-1,3,5-Triazin-2-yl)-5-(1-(4-(Methylsulfonyl)Piperazin-1-yl)Ethyl)Pyridin-2-yl)-5-Fluoroquinolin-7-Amine], the IC50 was above 10 µM.

For `COCCNc1cnc(Nc2ccc(OC)nc2)c(-c2nc(C)nc3[nH]cnc23)c1` [Example 93, N5-(2-methoxyethyl)-N2-(6-methoxypyridin-3-yl)-3-(2-methyl-9H-purin-6-yl)pyridine-2,5-diamine], the IC50 is 3.54 µM.

On to `Cc1nc(N)nc(-c2cc(CN3CCN(S(C)(=O)=O)CC3)cnc2Nc2ccc3ncsc3c2)n1` [Example 241, N-(3-(4-Amino-6-Methyl-1,3,5-Triazin-2-yl)-5-((4-(Methylsulfonyl)Piperazin-1-yl)Methyl)Pyridin-2-yl)Benzo[D]Thiazol-6-Amine], for which the IC50 is above 10 µM.

With `COc1ccc(Nc2ncc(CN3CC[C@@H](CO)C3)cc2-c2nc(C)nc(N)n2)cn1` [Example 217, (R)-(1-((5-(4-Amino-6-Methyl-1,3,5-Triazin-2-yl)-6-(6-Methoxypyridin-3-Ylamino)Pyridin-3-yl)Methyl)Pyrrolidin-3-yl)Methanol], the IC50 was above 10 µM.

For `Cc1nc(-c2cccnc2Nc2cccc3[nH]ccc23)c2nc[nH]c2n1` [Example 56, N-(3-(2-methyl-9H-purin-6-yl)pyridin-2-yl)-1H-indol-4-amine], the IC50 turned out to be 0.621 µM.

On to `COc1ccc(Nc2ncc(-c3ccccn3)cc2-c2nc(C)nc(N)n2)cn1` [Example 172, 5′-(4-Amino-6-Methyl-1,3,5-Triazin-2-yl)-N-(6-Methoxypyridin-3-yl)-2,3′-Bipyridin-6′-Amine], for which the IC50 is above 10 µM.

In the case of `CC(=O)Nc1ccc(Nc2ncc(Cl)cc2-c2nc(C)nc(N)n2)cn1` [Example 193, N-(5-(3-(4-Amino-6-Methyl-1,3,5-Triazin-2-yl)-5-Chloropyridin-2-Ylamino)Pyridin-2-yl)Acetamide], the IC50 is above 10 µM.

For `Cc1nc(N)nc(-c2cccnc2Nc2cccc3[nH]ccc23)n1` [Example 22, N-(3-(4-Amino-6-Methyl-1,3,5-Triazin-2-yl)Pyridin-2-yl)-1H-Indol-4-Amine], the IC50 turned out to be 7.16 µM.

In the case of `COc1ccc(Nc2ncc(C(O)c3ccc(S(C)(=O)=O)cc3)cc2-c2nc(C)nc3[nH]cnc23)cn1` (stereo not shown) [Example 139, (6-(6-methoxypyridin-3-ylamino)-5-(2-methyl-9H-purin-6-yl)pyridin-3-yl)(4-(methylsulfonyl)phenyl)methanol], the IC50 is above 10 µM.
